From PMC6235670, “An mTOR Signaling Modulator Suppressed Heterotopic Ossification of Fibrodysplasia Ossificans Progressiva” (Stem Cell Reports, 2018)

Test system: FOP-iMSCs
Assay: 2D chondrogenic induction of FOP-iMSCs with activin A (GAG, Alcian blue)
Type: cell-based, human
Conditions: 7 days, 1 µg/mL

trastuzumab: ERBB2-selective neutralizing antibody
effect on GAG in the chondrogenesis of FOP-iMSCs (ERBB2 neutralizing antibodies): no effect
